Details: heat molded pellets of the heterodimer, PBS and/or 100% FBS, 37° C.

With “Dexamethasone-Triethylene Glycol-Hydrocortisone [Compound 4]” the “drugs released from pellets” value was “released both dexamethasone and hydrocortisone”.
